# Laboratory results taken from patent US6270979A (priority 1998, dated 2001).
# The chains behind the UniProt entries cited, without tags or fusion partners.
# UniProt P35372, whole entry: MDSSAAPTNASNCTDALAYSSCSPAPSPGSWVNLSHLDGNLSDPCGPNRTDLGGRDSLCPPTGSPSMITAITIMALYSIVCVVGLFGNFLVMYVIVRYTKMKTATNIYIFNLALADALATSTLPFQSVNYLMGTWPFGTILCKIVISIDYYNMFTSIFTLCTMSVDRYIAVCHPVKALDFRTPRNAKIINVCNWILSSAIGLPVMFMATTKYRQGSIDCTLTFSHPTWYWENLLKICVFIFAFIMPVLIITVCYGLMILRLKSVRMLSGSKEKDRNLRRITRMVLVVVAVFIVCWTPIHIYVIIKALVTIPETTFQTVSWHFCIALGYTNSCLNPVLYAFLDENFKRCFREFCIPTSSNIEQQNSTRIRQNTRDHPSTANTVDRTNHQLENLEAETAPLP
# UniProt P33535, whole entry: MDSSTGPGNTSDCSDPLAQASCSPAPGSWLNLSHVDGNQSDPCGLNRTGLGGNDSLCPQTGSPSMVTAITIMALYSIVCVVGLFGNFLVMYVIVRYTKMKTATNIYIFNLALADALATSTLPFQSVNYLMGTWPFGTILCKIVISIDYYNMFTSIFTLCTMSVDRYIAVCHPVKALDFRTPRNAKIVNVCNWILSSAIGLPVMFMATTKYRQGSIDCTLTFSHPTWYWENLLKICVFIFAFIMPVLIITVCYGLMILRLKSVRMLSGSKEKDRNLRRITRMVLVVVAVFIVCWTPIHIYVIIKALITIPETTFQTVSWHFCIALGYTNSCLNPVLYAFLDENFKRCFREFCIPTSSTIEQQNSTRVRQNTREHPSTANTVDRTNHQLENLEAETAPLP
# “Also recorded” adds a separate entry of the source.
# What was measured:
# opioid μ receptor = opioid μ receptor (Homo sapiens, UniProt P35372); assay type: cell-based
# [1] = target: epitope-tagged μ opioid receptor (EE-μR) (Rattus norvegicus, UniProt P33535); assay type: cell-based
substance,measurement,setting,value
D-Phe-Cys-Tyr-D-Trp-Arg-Thr-Pen-ThrNH2 [CTAP],classification of opioid drug (agonist / neutral / negative antagonist),opioid μ receptor,neutral antagonists
same,effect on cAMP levels / constitutive activity in morphine pretreated cells,opioid μ receptor,do not affect cAMP levels; also recorded: no significant effect on cAMP levels in dependent cells
same,effect on μ receptor (μ*) phosphorylation,[1],did not block μ* phosphorylation; also recorded: consistently lowered the level of μ* phosphorylation relative to naloxone
